Screening results deposited in PubChem by National Center for Advancing Translational Sciences (NCATS).
Hits are enriched below; roughly 16% of the tested compounds scored in any of these assays.
TDP1 block: blocks human tyrosyl-DNA phosphodiesterase 1 | Q9NUW8 | recombinant TDP1, AlphaScreen DNA substrate cleavage | Potency, µM (doses to about 130 µM), inactives show top-dose activity change, negative = inhibition, usual class: inhibitors | 350,000 tested, 0.28% active; further: potency means the concentration at half of the fitted maximal effect; on the % scale 0 is the no-effect control and ±100 the full control effect; nearly all actives have a fitted effect of over 40% in size
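Signal: AlphaScreen proximity between streptavidin donor and anti-FITC acceptor beads on intact substrate. Reaction: Tdp1 1 nM, substrate 15 nM final, 5 min RT after 15 min compound preincubation.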
DT40 TDP1 CPT: growth inhibition of DT40 Tdp1-/-;hTDP1 cells with camptothecin (screen for TDP1 inhibitors); chicken DT40 Tdp1-/-;hTDP1 cells + 20 nM CPT, ATP luminescence, 48 h; Potency, µM (series often up to 46.2 µM), for inactives: at the top dose activity change, negative = growth inhibition, usual class: inhibitors; 420,000 tested, 12% active; further: potency means the concentration at half of the fitted maximal effect; on the % scale 0 is the no-effect control and ±100 the full control effect; nearly all actives have a fitted effect of over 55% in size
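Chicken DT40 Tdp1-/- cells complemented with human TDP1, 400 cells/well, exposed to compounds plus 20 nM camptothecin for at least 48 h at 37 C; viability read as ATP content by CellTiter-Glo luminescence.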
DT40 TDP1 no CPT: qHTS for Inhibitors of human tyrosyl-DNA phosphodiesterase 1 (TDP1): qHTS in cells in absence of CPT; DT40 Tdp1-/- hTDP1 cells, no CPT, ATP luminescence, 48 h; 420,000 tested, 15% active; Potency, µM (highest dose often 46.2 µM), inactives show at the highest dose activity change, negative = growth inhibition, hits mostly inhibitors; further: potency means the concentration at half of the fitted maximal effect; on the % scale 0 is the no-effect control and ±100 the full control effect; nearly all actives have a fitted effect of over 55% in size
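A cellular qHTS used chicken DT40 cells lacking endogenous Tdp1 but carrying stably transfected human TDP1. Compounds were applied without camptothecin, and cell growth kinetics were judged by ATP-dependent luminescence after ≥48 hr.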
uPA surface inh: inhibitors of cell surface uPA generation; cell surface uPA generation assay, qHTS; Potency, µM (highest dose often 38.3 µM), without a hit: at the top dose activity change, negative = inhibition, hits mostly inhibitors; 330,000 tested, 0.31% active; active means well fitted inhibition curve with a large enough effect; inconclusive means small, poorly fitted or top-dose-only effect; inactive means no such curve, though single readings can be large or run the other way; tested in mouse RAW 264.7 cells; further: potency means the concentration at half of the fitted maximal effect; on the % scale 0 is the no-effect control and ±100 the full control effect; nearly all actives have a fitted effect of over 55% in size
miR-21 reporter: miR-21 reporter, rising signal | AID 2288 | HeLa miR-21 FLuc reporter, luciferase, 48 h | 340,000 tested, under 10 active | Potency, µM (doses to about 38.3 µM), for inactives: at the top dose reporter change, positive = more light; active = well fitted rising curve with a large enough effect; inconclusive = small, poorly fitted or top-dose-only effect; inactive = no such curve, though single readings can be large or run the other way;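 note: % of control where 0% means no effect; miR-21 action dims this reporter so a rising signal means less miR-21 action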
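Luminescence from a firefly luciferase reporter carrying a miR-21 binding site downstream, stably expressed under a CMV promoter in HeLa cells that make miR-21 endogenously, reports miRNA modulation after 48 h compound exposure up to approximately 40uM final.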
* marks the source's active call; other numbers are inactive results; ? = inconclusive; nt = no result given; [ ] = remark or other dose. Unless noted, the call rests on the fitted dose curve; in most records, active means well fitted curve in the direction sought with a large enough effect; inconclusive means small, poorly fitted or top-dose-only effect, or another doubt; inactive means no such curve, though single readings can be large; an effect the other way counts as inactive or inconclusive.

1	Cc1cc(-c2csc3nc[nH]c(=S)c23)cc(C)c1C
2	COCCC(=O)N1CCC(Oc2ccc(C(=O)NCCc3cn[nH]c3)cc2)CC1
3	CC(C)(C)Cn1c(=O)[nH]c(=O)c2cc([N+](=O)[O-])cnc21
4	C[C@@H]1CN([C@H](C)CO)C(=O)CCCn2nncc2CO[C@H]1CN(C)Cc1ccc(Cl)c(Cl)c1
5	O=C(O)c1ccc(S(=O)(=O)c2ccc3c(c2)C(=O)N(c2ccccc2[N+](=O)[O-])C3=O)cc1
6	C#CC(=O)CC1(CN(Cc2ccccc2)C(=O)OC(C)(C)C)CCCCC1

assay / entry | 1 | 2 | 3 | 4 | 5 | 6
TDP1 block | nt | 2% | 3% | nt | 1% | nt
DT40 TDP1 CPT | 5.8µM* | 0% | 4% | -23% | -2% | 12µM*
DT40 TDP1 no CPT | 5.2µM* | 22% | -4% | ? | -11% | 10µM*
uPA surface inh | -6% | 5% | 3% | nt | -1% | ?
miR-21 reporter | 7% | -2% | -4% | nt | -1% | nt

7	CON(C)C(=O)CC1(CN(Cc2ccccc2)C(=O)OC(C)(C)C)CCCCC1
8	COc1ccccc1NS(=O)(=O)c1cccc(C(=O)N/N=C(\C)c2ccc3c(c2)OCCO3)c1
9	Brc1ccc(-c2csc(N/N=C/c3ccco3)n2)cc1
10	Cc1csc(N/N=C/c2ccc([N+](=O)[O-])cc2)n1
11	Cc1sc(N/N=C/c2cccnc2)nc1-c1ccccc1
12	Cc1sc(N/N=C/c2ccco2)nc1-c1ccccc1

assay / entry | 7 | 8 | 9 | 10 | 11 | 12
TDP1 block | -10% | 6% | 5% | nt | -2% | 8%
DT40 TDP1 CPT | 18µM* | -14% | ? | 0% | -24% | ?
DT40 TDP1 no CPT | 18µM* | ? | 10µM* | ? | ? | 23µM*
uPA surface inh | -4% | -2% | 0% | -2% | -2% | -20%
miR-21 reporter | nt | -8% | -33% | -34% | -3% | -25%

Ordered by molar mass (low to high): some entries from above
10	Cc1csc(N/N=C/c2ccc([N+](=O)[O-])cc2)n1
7	CON(C)C(=O)CC1(CN(Cc2ccccc2)C(=O)OC(C)(C)C)CCCCC1
8	COc1ccccc1NS(=O)(=O)c1cccc(C(=O)N/N=C(\C)c2ccc3c(c2)OCCO3)c1

assay / entry | 10 | 7 | 8
TDP1 block | nt | -10% | 6%
DT40 TDP1 CPT | 0% | 18µM* | -14%
DT40 TDP1 no CPT | ? | 18µM* | ?
uPA surface inh | -2% | -4% | -2%
miR-21 reporter | -34% | nt | -8%

Later entries:
13	CN(C)S(=O)(=O)c1ccc(-c2csc(N/N=C/c3ccc(O)cc3)n2)cc1
14	C(=N\Nc1nc(-c2ccccc2)cs1)/c1ccco1
15	CCCCn1c(N)c(N(CCC(C)C)C(=O)c2cc(-c3ccco3)nc3ccccc23)c(=O)[nH]c1=O
16	CCOc1ncccc1C(=O)Nc1nc(C(C)(C)C)cs1
17	Cc1onc(-c2ccccc2)c1-c1csc(N/N=C/c2ccccc2)n1
18	Cc1ccc(-c2csc(N/N=C/c3ccco3)n2)cc1

assay / entry | 13 | 14 | 15 | 16 | 17 | 18
TDP1 block | 7% | 7% | nt | 0% | 8% | 10%
DT40 TDP1 CPT | 0.92µM* | 21µM* | -29% | ? | ? | ?
DT40 TDP1 no CPT | 0.65µM* | 15µM* | -8% | ? | 12µM* | ?
uPA surface inh | -5% | 2% | 3% | -30% | 8% | nt
miR-21 reporter | 26% | -58% | -9% | -15% | 3% | -44%

19	Clc1ccc(-c2csc(N/N=C/c3ccco3)n2)cc1
20	Clc1ccc(-c2csc(N/N=C\c3cccnc3)n2)cc1
21	CN(C)S(=O)(=O)c1ccc(-c2csc(N/N=C/c3ccco3)n2)cc1
22	C(=N\Nc1nc(-c2ccccc2)cs1)/c1ccncc1
23	Cc1ccc(-c2csc(N/N=C/C=C/c3ccccc3)n2)cc1
24	CCOC(=O)c1ccc(NC(=O)CSc2nccn2-c2ccc(OCC)cc2)cc1

assay / entry | 19 | 20 | 21 | 22 | 23 | 24
TDP1 block | 12% | 3% | nt | 7% | 9% | 0%[12.3 µM]
DT40 TDP1 CPT | ? | ? | 12µM* | -24% | ? | ?
DT40 TDP1 no CPT | 7.3µM* | 15µM* | 8.2µM* | ? | ? | ?
uPA surface inh | 5% | 1% | -6% | 3% | nt | nt
miR-21 reporter | -47% | -21% | ? | -56% | -29% | 21%

25	N#Cc1ccc(C(=O)NNC(=O)c2cccc(S(=O)(=O)N3CCOCC3)c2)cc1
26	NCCC1CN(C(=O)OCc2ccccc2)c2ccccc21 (centres undefined)
27	COc1cc2oc(=O)cc(-c3ccc(-c4ccc(C)cc4)cc3)c2c(OC)c1OC
28	COc1cc2oc(=O)cc(-c3cccc(-c4ccc(C(F)(F)F)cc4)c3)c2c(OC)c1OC
29	COc1cc2oc(=O)cc(-c3ccc(-c4ccc(CO)cc4)cc3)c2c(OC)c1OC
30	COc1cc2oc(=O)cc(-c3ccc(-c4ccc(C#N)cc4)cc3)c2c(OC)c1OC

assay / entry | 25 | 26 | 27 | 28 | 29 | 30
TDP1 block | -5% | nt | -1%[56.1 µM] | 0%[56.1 µM] | 0%[56.1 µM] | -1%[56.1 µM]
DT40 TDP1 CPT | 1% | 5.8µM* | ? | 23µM* | 21µM* | 7.3µM*
DT40 TDP1 no CPT | -3% | 5.2µM* | ? | 15µM* | 18µM* | 8.2µM*
uPA surface inh | 3% | -2% | 7% | 5% | 2% | 17%
miR-21 reporter | nt | nt | nt | nt | nt | nt
